Assay results as given in publication PMC10882002, “Design of target specific peptide inhibitors using generative deep learning and molecular dynamics simulations” (Nature Communications, 2024).

By UniProt entry, the sequences of proteins in these tests, tags left out. Residues count along the entry.
UniProt Q9Y6K9, 1-196: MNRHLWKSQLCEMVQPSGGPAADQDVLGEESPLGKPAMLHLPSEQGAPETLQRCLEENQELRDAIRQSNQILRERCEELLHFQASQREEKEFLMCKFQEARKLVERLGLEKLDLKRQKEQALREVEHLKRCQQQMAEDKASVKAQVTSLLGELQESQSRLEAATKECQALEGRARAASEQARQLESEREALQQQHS
UniProt P35222, whole entry: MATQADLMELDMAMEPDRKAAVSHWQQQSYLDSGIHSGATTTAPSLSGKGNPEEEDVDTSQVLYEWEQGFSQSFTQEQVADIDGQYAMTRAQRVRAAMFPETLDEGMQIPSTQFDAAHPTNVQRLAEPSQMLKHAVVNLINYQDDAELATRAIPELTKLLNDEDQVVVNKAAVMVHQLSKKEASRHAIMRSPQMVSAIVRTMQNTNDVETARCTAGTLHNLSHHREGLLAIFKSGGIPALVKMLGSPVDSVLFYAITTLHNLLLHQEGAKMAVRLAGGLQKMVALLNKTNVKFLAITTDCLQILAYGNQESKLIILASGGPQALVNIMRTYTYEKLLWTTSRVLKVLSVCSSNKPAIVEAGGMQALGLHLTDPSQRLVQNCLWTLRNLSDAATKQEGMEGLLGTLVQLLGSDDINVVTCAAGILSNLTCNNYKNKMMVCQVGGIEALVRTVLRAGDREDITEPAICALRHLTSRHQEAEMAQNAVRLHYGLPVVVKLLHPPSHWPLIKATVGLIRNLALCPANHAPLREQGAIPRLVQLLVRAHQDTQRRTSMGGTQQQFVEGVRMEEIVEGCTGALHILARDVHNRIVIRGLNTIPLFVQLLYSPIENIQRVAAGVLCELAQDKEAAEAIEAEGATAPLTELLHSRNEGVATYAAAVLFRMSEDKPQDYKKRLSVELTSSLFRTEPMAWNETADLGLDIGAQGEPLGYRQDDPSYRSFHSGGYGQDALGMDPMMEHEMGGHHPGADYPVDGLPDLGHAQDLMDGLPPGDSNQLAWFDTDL

These compounds were tested against GST-NEMO (UniProt Q9Y6K9) (assay: AlphaScreen or HTRF).

Compound | IC50
NBD+1 (Fine-tune3) (peptide) | > 100 µM
NBD+4 (Fine-tune3) (peptide) | > 100 µM

The compounds below were run against T1, GST-β-catenin (Homo sapiens, UniProt P35222) (assay: fluorescence polarisation).

Compound | IC50
CAL-1 (Fine-tune3) (peptide; other documents disagree on this pair) | 78 nM
CAL-2 (Fine-tune3) (peptide; other documents disagree on this pair) | 10 nM
CAL-3 (Fine-tune1) (peptide; other documents disagree on this pair) | 89 nM
CAL-4 (Fine-tune2) (peptide; other documents disagree on this pair) | 70 nM
CAL-6 (Fine-tune2) (peptide; other documents disagree on this pair) | 240 nM
CAL-7 (human error) (peptide; other documents disagree on this pair) | 1400 nM
CAL-9 (Fine-tune3) (peptide; other documents disagree on this pair) | 300 nM
CAL-10 (Fine-tune2) (peptide; other documents disagree on this pair) | 200 nM
NAL-4 (peptide; other documents disagree on this pair) | 170 nM
NAL-6 (peptide; other documents disagree on this pair) | 100 nM
NAL-9 (peptide; other documents disagree on this pair) | 84 nM
NAL-10 (peptide; other documents disagree on this pair) | > 3000 nM

Each compound was assayed against T2, NEMO (Homo sapiens, UniProt Q9Y6K9) (assay: Competitive homogeneous time-resolved fluorescence (HTRF) assay for NEMO binding (GST-NEMO / biotin-IKKβKK/RR)).
T2 construct: made in house; host or cells: E. coli BL21 (DE3)

Compound | IC50
CC(C)C[C@H](NC(=O)[C@H](C)NC(=O)[C@@H](NC(=O)[C@H](CO)NC(=O)[C@H](CO)NC(=O)[C@H](CC(=O)O)NC(=O)[C@H](CC(=O)O)NC(=O)[C@H](CO)NC(=O)[C@H](CCCCN)NC(=O)[C@@H](N)CC(C)C)[C@@H](C)O)C(=O)N[C@@H](CC(=O)O)C(=O)N[C@@H](Cc1c[nH]c2ccccc12)C(=O)N[C@@H](CO)C(=O)N[C@@H](Cc1c[nH]c2ccccc12)C(=O)N[C@@H](CC(C)C)C(=O)N[C@@H](CCC(N)=O)C(=O)N[C@H](C(=O)N[C@@H](CCC(=O)O)C(N)=O)[C@@H](C)O [NBD+12] | 75 µM

Each compound was assayed against T1, GST-β-catenin (assay: Competitive fluorescence polarization (FP)-based binding assay against β-catenin).
Design: Expression and purification of GST-β-catenin has been reported previously; made in house

Compound | fold improvement of β-catenin binding over the parent peptide
CC[C@H](C)[C@@H]1NC(=O)[C@@H](NC(=O)[C@H](CCC(=O)O)NC(=O)[C@@H]2CCCN2C(=O)[C@H](Cc2ccc(O)cc2)NC(=O)[C@H](CCC(N)=O)NC(=O)[C@H](CCCCN)NC(=O)[C@H](CCC(=O)O)NC(=O)CNC(=O)[C@@H](N)CCC(=O)O)CC(=O)NCCCC[C@@H](C(=O)N[C@@H](Cc2c[nH]cn2)C(=O)N[C@@H](CC(C)C)C(=O)N[C@@H](CCC(N)=O)C(=O)N[C@@H](CCCNC(=N)N)C(=O)N[C@H](C(=O)N[C@H](C(=O)N[C@@H](CC(C)C)C(N)=O)[C@@H](C)CC)C(C)C)NC(=O)[C@H](CC(=O)O)NC(=O)[C@H](CC(C)C)NC1=O [NAL-9] | approximately twofold better than the parent peptide
